The values that follow come from ChEMBL document CHEMBL5038675, “Selective A3 Adenosine Receptor Antagonist Radioligand for Human and Rodent Species” (ACS Med Chem Lett, 2022).

The chains behind the UniProt entries cited, without tags or fusion partners.
UniProt P0DMS8, whole entry: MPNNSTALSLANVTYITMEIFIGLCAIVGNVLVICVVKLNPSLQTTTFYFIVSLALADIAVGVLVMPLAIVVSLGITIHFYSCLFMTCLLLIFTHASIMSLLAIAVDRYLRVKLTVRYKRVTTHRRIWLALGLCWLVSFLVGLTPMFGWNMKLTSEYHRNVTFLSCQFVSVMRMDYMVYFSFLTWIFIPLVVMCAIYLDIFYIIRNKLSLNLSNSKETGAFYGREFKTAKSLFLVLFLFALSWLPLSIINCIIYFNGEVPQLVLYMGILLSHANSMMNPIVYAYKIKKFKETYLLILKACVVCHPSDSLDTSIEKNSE

Each structure is given as a SMILES string.

The experiment addresses Adenosine receptor A3 (Homo sapiens, UniProt P0DMS8).

What is called Ki is a measure of affinity in units of concentration, obtained from inhibition or displacement. Lower therefore signals tighter binding.

`CCCn1cc2c(nc(NC(=O)Nc3ccc(OC)cc3)n3nc(-c4ccco4)nc23)n1` showed a Ki of 1.13 µM.
To `CNC(=O)[C@H]1O[C@@H](n2cnc3c(NCc4ccc(N)c(I)c4)ncnc32)[C@H](O)[C@@H]1O` belongs 1 µM.
